Measured values from patent US8153803B2, “Compositions and methods for modulating sirtuin activity” (The General Hospital Corporation, priority 2006, dated 2012).

Key:
SIRT2 [1] = biological target: SIRT2 (Homo sapiens, UniProt Q8IXJ6)
SIRT2 [2] = biological target: T1, SIRT2 (Homo sapiens, UniProt Q8IXJ6); assay: Fluorescent SIRT enzyme assay (recombinant enzyme, fluorescent peptide substrate); assay type: biochemical; set-up: purchased Biomol (Plymouth Meeting, Pa.); conditions: SIRT2 IC50 compared with B2
T1 sequence (Q8IXJ6 1-389): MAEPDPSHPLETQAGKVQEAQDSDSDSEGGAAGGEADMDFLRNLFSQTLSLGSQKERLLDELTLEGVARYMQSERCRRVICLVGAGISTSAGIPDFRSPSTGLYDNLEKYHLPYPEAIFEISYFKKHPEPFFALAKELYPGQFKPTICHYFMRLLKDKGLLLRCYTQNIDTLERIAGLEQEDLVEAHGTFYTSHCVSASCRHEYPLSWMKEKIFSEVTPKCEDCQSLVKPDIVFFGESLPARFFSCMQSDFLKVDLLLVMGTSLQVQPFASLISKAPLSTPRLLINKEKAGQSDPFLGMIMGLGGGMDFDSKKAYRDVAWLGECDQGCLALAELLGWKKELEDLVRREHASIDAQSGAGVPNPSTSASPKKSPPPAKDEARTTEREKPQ

SIRT2 [3] = biological target: T1, SIRT2; conditions: myc-tagged SIRT2 expressed in HeLa cells
SIRT2 [4] = biological target: T1, SIRT2; conditions: tubulin heterodimers from bovine brain, 2 hours; compared with inactive compound control and SIRTINOL

competition with protein substrates (SIRT2 [1]): no competition
competition with the co-factor NAD+ (SIRT2 [1]): weakly competed
increase in potency of AGK2 over B2 (SIRT2 [2]): 10 fold
inhibition of immunoprecipitated SIRT2 (SIRT2 [3]): able to inhibit SIRT2
acetylated tubulin level (SIRT2 [4]): increase in acetylated tubulin
Structure (SMILES): N#C/C(=C\c1ccc(-c2cc(Cl)ccc2Cl)o1)C(=O)Nc1cccc2ncccc12 [AGK2]
